# Measurements taken from PubChem BioAssay (Tox21).
# Sequences of proteins named here, by UniProt entry; tags and fusion partners are left off.
# UniProt Q03181, whole entry: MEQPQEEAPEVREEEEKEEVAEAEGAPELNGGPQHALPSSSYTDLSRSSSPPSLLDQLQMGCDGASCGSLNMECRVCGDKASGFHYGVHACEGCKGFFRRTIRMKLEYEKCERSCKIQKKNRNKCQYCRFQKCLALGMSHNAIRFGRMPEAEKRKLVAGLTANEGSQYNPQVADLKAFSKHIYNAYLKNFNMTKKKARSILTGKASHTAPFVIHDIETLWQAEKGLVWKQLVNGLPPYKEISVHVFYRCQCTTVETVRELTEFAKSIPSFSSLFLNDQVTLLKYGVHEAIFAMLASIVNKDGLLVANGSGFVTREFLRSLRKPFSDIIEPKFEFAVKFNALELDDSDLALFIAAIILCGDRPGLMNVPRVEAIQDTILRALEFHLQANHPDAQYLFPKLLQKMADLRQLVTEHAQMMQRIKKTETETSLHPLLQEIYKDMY
# UniProt P11473, whole entry: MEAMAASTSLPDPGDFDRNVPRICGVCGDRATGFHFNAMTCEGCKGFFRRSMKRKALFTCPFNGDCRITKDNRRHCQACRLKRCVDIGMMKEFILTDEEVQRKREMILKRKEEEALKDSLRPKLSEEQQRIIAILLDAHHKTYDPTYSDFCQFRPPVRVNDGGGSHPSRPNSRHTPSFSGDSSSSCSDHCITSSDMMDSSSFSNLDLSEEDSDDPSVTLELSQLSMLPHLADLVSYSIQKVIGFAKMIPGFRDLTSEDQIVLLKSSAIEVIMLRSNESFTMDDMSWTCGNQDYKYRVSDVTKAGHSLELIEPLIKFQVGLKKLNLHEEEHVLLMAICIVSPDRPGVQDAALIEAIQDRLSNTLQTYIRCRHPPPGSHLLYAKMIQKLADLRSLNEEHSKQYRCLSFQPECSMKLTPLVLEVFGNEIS
# UniProt Q96RI1, whole entry: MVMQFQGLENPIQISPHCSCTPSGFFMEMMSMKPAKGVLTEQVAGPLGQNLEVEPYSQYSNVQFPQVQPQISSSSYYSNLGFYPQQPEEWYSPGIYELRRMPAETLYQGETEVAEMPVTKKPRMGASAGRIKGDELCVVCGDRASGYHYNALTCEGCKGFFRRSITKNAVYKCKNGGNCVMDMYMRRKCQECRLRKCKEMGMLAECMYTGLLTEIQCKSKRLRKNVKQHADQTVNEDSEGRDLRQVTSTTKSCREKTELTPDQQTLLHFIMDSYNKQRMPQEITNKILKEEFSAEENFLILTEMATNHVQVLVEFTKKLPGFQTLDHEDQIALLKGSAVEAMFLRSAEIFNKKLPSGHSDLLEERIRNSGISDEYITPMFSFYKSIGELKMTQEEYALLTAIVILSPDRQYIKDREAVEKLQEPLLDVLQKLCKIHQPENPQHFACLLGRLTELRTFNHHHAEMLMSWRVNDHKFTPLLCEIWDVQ
# Where “and” joins values, the source holds several entries; their conditions need not be identical. Equal values may be shown once. The list shows a part of the results, in another mix than the full data. Inconclusive results are not listed. Calls of active or inactive are those of the source. Unless noted, the call rests on the fitted dose curve.
# Columns and labels:
# [1] = qHTS assay for small molecule agonists of the antioxidant response element (ARE) signaling pathway (AID 743202; active means well fitted activation curve with a large enough effect in the signal ratio in the repeat runs, not every such curve was filed as active; the % refers to the signal ratio; further: potency means the concentration at half of the fitted maximal effect)
# Outline: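 Read-out: LiveBLAzer B/G FRET substrate fluorescence after 2 h at room temperature, following 16 h compound treatment at 37 C of HepG2 cells carrying an ARE-driven beta-lactamase reporter.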
# [2] = qHTS assay for small molecule agonists of the antioxidant response element (ARE) signaling pathway - cell viability counter screen (AID 743203); conditions: ARE-bla HepG2 viability, CellTiter-Glo luminescence, 16 h; further: nearly all actives have a fitted effect of over 55% in size
# Outline: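 Seeded at 2,000 cells/well, ARE-bla HepG2 cells were incubated 5 hrs before compound addition. After 16 hrs of treatment at 37C with 5% CO2, CellTiter-Glo reagent was added and luminescence read 30 min later.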
# [3] = target: Peroxisome proliferator-activated receptor delta (Homo sapiens) (UniProt Q03181); experiment: qHTS assay to identify small molecule agonists of the peroxisome proliferator-activated receptor delta (PPARd) signaling pathway (AID 743212); conditions: HEK293H PPARd-UAS-bla, beta-lactamase FRET ratio, 17 h
# Outline: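 GeneBLAzer PPARd UAS-bla HEK293H cells (beta-lactamase reporter under UAS control), plated and rested 5 h at 37 C, then exposed to compounds in DMSO at 37 C; LiveBLAzer B/G FRET substrate added, 2 h room temperature, fluorescence read.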
# [4] = qHTS assay to identify small molecule antagonists of the peroxisome proliferator-activated receptor delta (PPARd) signaling pathway - cell viability counter screen (AID 743213; active means well fitted cell-killing curve with a large enough effect in the repeat runs; further: nearly all actives have a fitted effect of over 50% in size); conditions: PPARd-bla HEK293H viability, CellTiter-Glo luminescence, 17 h
# Outline: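 Same-well viability: cells pre-incubated 5 h, dosed with compound plus 300 nM L165041, kept 17 h at 37 C, FRET substrate 2 h RT, then CellTiter-Glo 30 min RT and luminescence.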
# [5] = target: Peroxisome proliferator-activated receptor delta (Homo sapiens) (UniProt Q03181); experiment: qHTS assay to identify small molecule antagonists of the peroxisome proliferator-activated receptor delta (PPARd) signaling pathway (AID 743215; active means well fitted inhibition curve with a large enough effect in the signal ratio in the repeat runs, not every such curve was filed as active; the % refers to the signal ratio;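 further: cells stimulated with agonist L165041 at 300 nM final during compound exposure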); conditions: HEK293H PPARd-UAS-bla, beta-lactamase FRET ratio, antagonist, 17 h
# Outline: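 Inhibition of L165041-driven (300 nM final) PPARd signaling is scored in HEK293H UAS-bla cells. Exposure lasts 17 h at 37 C; beta-lactamase activity is then read by FRET substrate fluorescence after 2 h at room temperature.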
# [6] = qHTS assay to identify small molecule antagonists of the farnesoid-X-receptor (FXR) signaling pathway - cell viability counter screen (AID 743221; active means well fitted cell-killing curve with a large enough effect in the repeat runs, not every such curve was filed as active; further: nearly all actives have a fitted effect of over 50% in size); conditions: FXR-bla HEK293T viability, CellTiter-Glo luminescence, 16 h
# Outline: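 CellTiter-Glo, 30 min RT, luminescence; same wells as the LiveBLAzer FRET read. Cells: FXR-UAS-bla HEK 293T. Treatment: compound with chenodeoxycholic acid 50 uM final, 16 h at 37 C.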
# [7] = target: Vitamin D3 receptor (Homo sapiens) (UniProt P11473); experiment: qHTS assay to identify small molecule agonists of the vitamin D receptor (VDR) signaling pathway (AID 743222); conditions: HEK293T VDR-UAS-bla, beta-lactamase FRET ratio, 16 h
# Outline: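 Quantitative HTS agonist-mode screen: compounds in DMSO were pin-transferred onto VDR-bla cells and incubated 16 h at 37C, 5% CO2. Reporter activity was detected with LiveBLAzer B/G FRET substrate after 2 h at room temperature.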
# [8] = target: Vitamin D3 receptor (Homo sapiens) (UniProt P11473); experiment: qHTS assay to identify small molecule antagonists of the vitamin D receptor (VDR) signaling pathway (AID 743223; active means well fitted inhibition curve with a large enough effect in the signal ratio in the repeat runs, not every such curve was filed as active; the % refers to the signal ratio); conditions: VDR-UAS-bla HEK293T, beta-lactamase FRET ratio, 16 h
# Outline: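 After VDR-bla cells are plated and left 4 h at 37C, DMSO-dissolved compounds and 3 nM (final) calcitriol agonist are added. Incubation continues 16 h at 37C; FRET beta-lactamase substrate then develops 2 h at room temperature.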
# [9] = target: Bile acid receptor (Homo sapiens) (UniProt Q96RI1); experiment: qHTS assay to identify small molecule antagonists of the farnesoid-X-receptor (FXR) signaling pathway (AID 743217; active means well fitted inhibition curve with a large enough effect in the signal ratio in the repeat runs, not every such curve was filed as active; the % refers to the signal ratio); conditions: HEK293T FXR-UAS-bla, beta-lactamase ratio, CDCA-stimulated, 16 h
# Source text: U.S. Tox21 Program National Center for Advancing Translational Sciences [NCATS] NIH Chemical Genomics Center [NCGC] U.S. Environmental Protection Agency [EPA] National Institutes of Environmental Health Sciences [NIEHS] National Toxicology Program [NTP] U.S. Food and Drug Administration [FDA] Tox21 Assay Overview: The farnesoid-X-receptor (FXR), a nuclear hormone receptor, is highly expressed in liver, intestine, kidney and adrenal cortex. Natural ligands of FXR are the bile acids (Cholic acid, Chenodeoxy cholic acid etc). FXR is an important regulator of diverse metabolic pathways, including the bile acid homeostasis, lipid and glucose metabolisms. FXR regulates the expression of target genes by binding either as a monomer or as a heterodimer with the retinoid X receptor (RXR). Numerous studies have reported that FXR exerts protective function during cholestasis, diabetes, liver regeneration, and cancer. To identify compounds that inhibit FXR signaling, GeneBLAzer FXR-UAS-bla HEK 293T cell line (Invitrogen, Carlsbad, CA) containing a beta-lactamase reporter gene under the control of a UAS response element was used to screen the Tox21 10K compound library.
# Tox21 Assay Protocol Summary: FXR-bla cells were dispensed at 5000 cells/5uL/well in 1536-well black wall/clear bottom plates using a Multidrop Combi (Thermo Fisher Scientific, Waltham, MA) dispenser. After the assay plates were incubated at 37C and 5% CO2 for 5 h, 23 nL of compounds dissolved in DMSO, positive controls or DMSO only was transferred to the assay plate by a Pintool station (Kalypsys, San Diego, CA), followed by addition of 1 uL Chenodeoxycholic acid (50 uM, final concentration in the wells). The assay plates were incubated at 37C for 16 h. After 1 uL of LiveBLAzerTM B/G FRET substrate was added using a Bioraptr Flying Reagent Dispenser (FRD) workstation (Beckman Coulter, Indianapolis, IN), the plates were incubated at room temperature for 2 h, and fluorescence intensity was measured by an Envision plate reader (PerkinElmer, Shelton, CT).
# [10] = target: Bile acid receptor (Homo sapiens) (UniProt Q96RI1); experiment: qHTS assay to identify small molecule agonists of the farnesoid-X-receptor (FXR) signaling pathway (AID 743220; active means well fitted activation curve with a large enough effect in the signal ratio in the repeat runs, not every such curve was filed as active; the % refers to the signal ratio); conditions: HEK293T FXR-UAS-bla, beta-lactamase FRET ratio, 16 h
# On the % scale 0 is the no-effect control and ±100 the full control effect.
compound,measurement,setting,value
COc1ccc([N+](=O)[O-])cc1[N+](=O)[O-],Potency,[1],inactive
same,"viability change, negative = cytotoxic",[2]; at 73.3 µM (top of the series),inactive: 7.74%
same,activation,[3]; at 62.6 µM (top of the series),inactive: 2.04%
same,"viability change, negative = cytotoxic",[4]; at 62 µM (top of the series),inactive: -9.89%
same,"ratio activity, negative = inhibition",[5]; at 62 µM (top of the series),inactive: 10.9%
same,"activity change, negative = cytotoxicity",[6]; at 62.6 µM (top of the series),inactive: -15.8%
same,activation,[7]; at 63.5 µM (top of the series),inactive: 0.351%
same,"activity change, negative = inhibition",[8]; at 61 µM (top of the series),inactive: 2.16%
Nc1cc([N+](=O)[O-])cc([N+](=O)[O-])c1O,"viability change, negative = cytotoxic",[2]; at 94.8 µM (top of the series),inactive: -10.4%
same,"viability change, negative = cytotoxic",[4]; at 80.4 µM (top of the series),inactive: -0.522%
same,"activity change, negative = cytotoxicity",[6]; at 81.1 µM (top of the series),inactive: -13.3%
same,activation,[7]; at 81.1 µM (top of the series),inactive: -0.118%
same,"activity change, negative = inhibition",[8]; at 78.8 µM (top of the series),inactive: 19.7%
C/C1=C2N=C(/C=C3N=C(/C(C)=C4\[N-][C@@](C)([C@@H]5N=C1[C@](C)(CCC(=O)NC[C@@H](C)OP(=O)([O-])O[C@H]1[C@@H](O)[C@@H](n6cnc7cc(C)c(C)cc76)O[C@@H]1CO)[C@H]5CC(N)=O)[C@@](C)(CC(N)=O)[C@@H]4CCC(N)=O)[C@@](C)(CC(N)=O)[C@@H]\3CCC(N)=O)C(C)(C)[C@@H]/2CCC(N)=O.[C-]#N.[Co+3],Potency,[1],inactive
same,"viability change, negative = cytotoxic",[2]; at 73.3 µM (top of the series),inactive: -4.17%
same,activation,[3]; at 62.6 µM (top of the series),inactive: 0.944%
same,"viability change, negative = cytotoxic",[4]; at 62 µM (top of the series),inactive: 0.826%
same,"ratio activity, negative = inhibition",[5]; at 62 µM (top of the series),inactive: -3.62%
same,"activity change, negative = inhibition",[9]; at 62.6 µM (top of the series),inactive: 1.11%
same,"activity change, negative = cytotoxicity",[6]; at 62.6 µM (top of the series),inactive: 1.21%
same,activation,[7]; at 63.5 µM (top of the series),inactive: 7.18%
same,"activity change, negative = inhibition",[8]; at 61 µM (top of the series),inactive: 5.9%
Cc1ccc([N+](=O)[O-])cc1[N+](=O)[O-],Potency,[1],inactive
same,"viability change, negative = cytotoxic",[2]; at 73.3 µM (top of the series),inactive: 7.75% and inactive: 5.52%
same,"viability change, negative = cytotoxic",[4]; at 62 µM (top of the series),inactive: 0.945% and inactive: -19.3%
same,"activity change, negative = cytotoxicity",[6]; at 62.6 µM (top of the series),inactive: 2.84% and inactive: -2.44%
same,activation,[7]; at 63.5 µM (top of the series),inactive: 1.15% and inactive: 5.07%
same,"activity change, negative = inhibition",[8]; at 61 µM (top of the series),inactive: -11.6% and inactive: 4.73%
OCCSCCO,Potency,[1],inactive
same,"viability change, negative = cytotoxic",[2]; at 73.3 µM (top of the series),inactive: 10.1%
same,"viability change, negative = cytotoxic",[2]; at 94.8 µM (top of the series),inactive: 1.28%
same,activation,[3]; at 81.1 µM (top of the series),inactive: -2.72%
same,"viability change, negative = cytotoxic",[4]; at 62 µM (top of the series),inactive: 1.34%
same,"ratio activity, negative = inhibition",[5]; at 62 µM (top of the series),inactive: 2.48%
same,"ratio activity, negative = inhibition",[5]; at 80.4 µM (top of the series),inactive: -2.09%
same,"activity change, negative = inhibition",[9]; at 62.6 µM (top of the series),inactive: -0.0431%
same,"activity change, negative = inhibition",[9]; at 81.1 µM (top of the series),inactive: -0.284%
same,activation,[10]; at 62.6 µM (top of the series),inactive: -0.116%
same,activation,[10]; at 81.1 µM (top of the series),inactive: -2.58%
same,"activity change, negative = cytotoxicity",[6]; at 62.6 µM (top of the series),inactive: 4.14%
same,"activity change, negative = cytotoxicity",[6]; at 81.1 µM (top of the series),inactive: 4.81%
same,activation,[7]; at 63.5 µM (top of the series),inactive: -2.4%
same,activation,[7]; at 81.1 µM (top of the series),inactive: -2.04%
same,"activity change, negative = inhibition",[8]; at 61 µM (top of the series),inactive: -0.727%
same,"activity change, negative = inhibition",[8]; at 78.8 µM (top of the series),inactive: 19.4%
O=[N+]([O-])[O-].[NH4+],Potency,[1],inactive
same,"viability change, negative = cytotoxic",[2]; at 73.3 µM (top of the series),inactive: -0.272% and inactive: 13.1%
same,"viability change, negative = cytotoxic",[4]; at 62 µM (top of the series),inactive: 1.41% and inactive: 6.71%
same,"activity change, negative = cytotoxicity",[6]; at 62.6 µM (top of the series),inactive: 3.1% and inactive: 3.19%
CCN(CC)CCCl,Potency,[1],active: 24.7 µM
same,"viability change, negative = cytotoxic",[2]; at 94.8 µM (top of the series),inactive: -2.79%
same,activation,[7]; at 81.1 µM (top of the series),inactive: -1.78%
same,"activity change, negative = inhibition",[8]; at 78.8 µM (top of the series),inactive: -13.3%
[NH4+].[O-][Cl+3]([O-])([O-])[O-],Potency,[1],inactive
same,"viability change, negative = cytotoxic",[2]; at 94.8 µM (top of the series),inactive: 3.99%
same,activation,[3]; at 62.6 µM (top of the series),inactive: 0.675%
same,activation,[3]; at 81.1 µM (top of the series),inactive: 1.81%
same,"viability change, negative = cytotoxic",[4]; at 62 µM (top of the series),inactive: 1.37%
same,"viability change, negative = cytotoxic",[4]; at 80.4 µM (top of the series),inactive: 4.04%
same,"ratio activity, negative = inhibition",[5]; at 62 µM (top of the series),inactive: -10.1%
same,"ratio activity, negative = inhibition",[5]; at 80.4 µM (top of the series),inactive: -0.572%
same,"activity change, negative = cytotoxicity",[6]; at 62.6 µM (top of the series),inactive: -0.776%
same,"activity change, negative = cytotoxicity",[6]; at 81.1 µM (top of the series),inactive: -3.13%
O=[N+]([O-])OCC(CO[N+](=O)[O-])(CO[N+](=O)[O-])CO[N+](=O)[O-],Potency,[1],inactive
same,"viability change, negative = cytotoxic",[2]; at 73.3 µM (top of the series),inactive: 10.5%
same,activation,[3]; at 62.6 µM (top of the series),inactive: 4.68%
same,"viability change, negative = cytotoxic",[4]; at 62 µM (top of the series),inactive: -12%
same,"ratio activity, negative = inhibition",[5]; at 62 µM (top of the series),inactive: 1.71%
same,"activity change, negative = inhibition",[9]; at 62.6 µM (top of the series),inactive: 0.223%
same,activation,[10]; at 62.6 µM (top of the series),inactive: 0.195%
same,"activity change, negative = cytotoxicity",[6]; at 62.6 µM (top of the series),inactive: -0.157%
same,activation,[7]; at 63.5 µM (top of the series),inactive: 1.97%
same,"activity change, negative = inhibition",[8]; at 61 µM (top of the series),inactive: 5.43%
